Measurements as given in PubChem BioAssay AID720707 (National Center for Advancing Translational Sciences (NCATS), 2013).
This is a selection; strong and weak results do not stand in their true shares. The source made the active and inactive calls. Calls follow the shape of the dose curve; as a rule, active = well fitted activation curve with a large enough effect; inconclusive = small, poorly fitted or top-dose-only effect; inactive = no such curve, though single readings can be large or run the other way.
Also: nearly all actives have a fitted effect of over 60% in size.

Protein sequences, listed by entry. Tags and fused reporters are not part of them.
UniProt O95398, whole entry: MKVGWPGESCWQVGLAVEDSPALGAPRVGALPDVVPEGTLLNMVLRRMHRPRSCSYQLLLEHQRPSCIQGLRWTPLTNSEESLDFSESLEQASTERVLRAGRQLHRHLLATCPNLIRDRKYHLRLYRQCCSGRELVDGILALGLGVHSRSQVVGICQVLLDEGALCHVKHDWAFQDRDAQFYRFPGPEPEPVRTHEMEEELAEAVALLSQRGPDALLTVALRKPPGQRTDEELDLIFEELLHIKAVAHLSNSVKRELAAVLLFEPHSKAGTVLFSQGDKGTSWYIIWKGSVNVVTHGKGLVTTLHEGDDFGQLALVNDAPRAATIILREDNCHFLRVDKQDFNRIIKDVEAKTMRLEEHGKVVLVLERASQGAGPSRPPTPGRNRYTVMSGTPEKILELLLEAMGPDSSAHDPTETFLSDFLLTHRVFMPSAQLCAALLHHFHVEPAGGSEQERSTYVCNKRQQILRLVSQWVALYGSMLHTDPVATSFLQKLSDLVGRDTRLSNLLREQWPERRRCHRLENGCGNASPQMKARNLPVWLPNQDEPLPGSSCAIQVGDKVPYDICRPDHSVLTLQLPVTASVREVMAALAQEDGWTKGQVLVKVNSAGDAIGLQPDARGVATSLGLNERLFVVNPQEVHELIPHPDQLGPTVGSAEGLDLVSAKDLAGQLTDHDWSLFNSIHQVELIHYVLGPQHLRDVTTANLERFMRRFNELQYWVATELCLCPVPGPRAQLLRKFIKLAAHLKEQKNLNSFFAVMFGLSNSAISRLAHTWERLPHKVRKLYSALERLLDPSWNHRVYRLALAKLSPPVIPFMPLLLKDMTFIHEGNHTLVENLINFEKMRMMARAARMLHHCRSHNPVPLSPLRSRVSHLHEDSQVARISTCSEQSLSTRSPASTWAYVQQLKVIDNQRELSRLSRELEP

The compounds below were run against Rap guanine nucleotide exchange factor 3 (Homo sapiens) (UniProt O95398) (assay: qHTS for Agonist of cAMP-regulated guanine nucleotide exchange factor 3 (EPAC1): primary screen). Details: biochemical assay, 100% = response to 6.5 mM cAMP; at 154 µM (top of the series).
Source text: In multi-cellular eukaryotic organisms, the effects of cAMP are transduced by two ubiquitously-expressed intracellular cAMP receptors, the classic protein kinase A/cAMP-dependent protein kinase (PKA/cAPK) and the more recently discovered exchange protein directly activated by cAMP/cAMP-regulated guanine nucleotide exchange factor (EPAC/cAMP-GEF). Both PKA and EPAC are ubiquitously expressed in all tissues, and an increase in intracellular cAMP levels will lead to the activation of both PKA and EPAC. Therefore, careful dissections of the individual role and relative contribution of EPAC and PKA within the overall cAMP signaling in various model systems are critical for further elucidating the mechanism of cAMP signaling. To date no EPAC-specific antagonists and agonist, as well as isoform-specific agonists have been reported, and developing EPAC-specific pharmacological probes to determine the physiological functions that EPAC play in the overall cAMP-mediated signaling remains a major challenge within the research field. Furthermore, identified regulators of EPAC may lead to new mechanism-based therapeutic strategies specifically targeting the EPAC / cAMP-signaling components as EPAC has been implicated to play important roles in major human pathological conditions such as diabetes, heart disease, and cancer.
This qHTS will be used to screen the Molecular Libraries Small Molecule Repository (MLSMR) as a concentration-titration series using the NCGC unique quantitative screening (qHTS) platform to find activators for EPAC1. In addition, this assay will also be used as a counterscreen for the EPAC2 qHTS. This fluorescent based assay is developed and validated for EPAC1 that measures exchange using EPAC effector Rap1 complex with BODIPY-GDP, a GDP analog with a tethered fluorophores. Activators are identified by monitoring the change in fluorescence signal as the exchanged free BODIPY-GDP has a reduced fluorescence compared to Rap1-bound BODIPY-GDP. Increase in signal (activation) is the desired outcome for the EPAC1 agonist while no activity in this assay is desired for the EPAC2 agonist counterscreen.
[1] de Rooij, J., Zwartkruis, F. J., Verheijen, M. H., Cool, R. H., Nijman, S. M., Wittinghofer, A., and Bos, J.L. (1998) Nature 396, 474-477
NIH Chemical Genomics Center [NCGC]
NIH Molecular Libraries Probe Centers Network [MLPCN]
Assay Submitter (PI): Xiaodong Cheng, The University of Texas Medical Branch
Briefly, three uL of reagents (100 nM EPAC1, 250 nM RAP1B-BODIPY-GDP, 50 uM GDP) were dispensed into a 1536-well Greiner black solid-bottom medium binding assay plate. Controls and test compounds (23 nL) were transferred to the plate via a Kalypsys pin tool equipped with a 1536-pin array. The plates were centrifuged at 1,000 rpm for 15 seconds followed by 5 minute incubation at room temperature. The assay plates were read at 5 minute intervals for 30 minutes in the ViewLux plate reader using 480nm excitation and 540nm emission filters. The results were normalized to the agonist positive control of 6.5 mM cAMP.
CP(=O)(NC(=O)Nc1ccccc1)Oc1ccccc1 (configuration not stated) was tested, and the activation was inactive: 4.1%. In the case of CCc1ccc(OP(C)(=O)N2CCN(c3ccc([N+](=O)[O-])cc3)CC2)cc1 (configuration not stated), the activation is reported as inactive: 5.13%. In the case of Cc1cc(C)cc(OP(C)(=O)Nc2ccc(SC(F)(F)F)cc2)c1 (configuration not stated), the activation is reported as inactive: -0.264%. In the case of Cc1cccc(C)c1OP(C)(=O)Nc1ccc(SC(F)(F)F)cc1 (configuration not stated), the activation is reported as inactive: 0.297%. In the case of CP(=O)(Nc1ccc(SC(F)(F)F)cc1)Oc1ccc(Cl)cc1 (configuration not stated), the activation is reported as inactive: -2.59%. For CP(=O)(Oc1ccccc1)OC(c1ccccc1)C(F)(F)F (configuration not stated), the activation was inactive: 3.95%. In the case of CP(=O)(Nc1ccccn1)Oc1ccc(Cl)cc1 (configuration not stated), the activation is reported as inactive: 4.09%. With CCOP(C)(=S)SCC(=O)NC(C)C(=O)O (configuration not stated) the activation was inactive: 5.71%. In the case of CCOC(=O)c1ccc(NP(C)(=O)Oc2ccc(OC)cc2)cc1 (configuration not stated), the activation is reported as inactive: -1.23%. With O=[N+]([O-])c1cc([N+](=O)[O-])c(O)c([N+](=O)[O-])c1.c1ccc(Oc2ccncc2)cc1 the activation was inactive: 4.85%. In the case of CN(Cc1cccnc1)C(=O)COc1ccc(Cl)c(Cl)c1.O=[N+]([O-])c1cc([N+](=O)[O-])c(O)c([N+](=O)[O-])c1, the activation is reported as inactive: -14.7%. With O=[N+]([O-])c1cc([N+](=O)[O-])c(-n2nnc3ccccc32)c([N+](=O)[O-])c1 the activation was inactive: -4.66%. With Cc1nc2ccc3ccccc3c2s1.O=[N+]([O-])c1cc([N+](=O)[O-])c(O)c([N+](=O)[O-])c1 the activation was inactive: 3.25%. For O=[N+]([O-])c1cc([N+](=O)[O-])c(-c2cnn(-c3ccccc3)c2)c([N+](=O)[O-])c1, the activation was inactive: 8.96%. With CC1=C2N=C(C=C3N=C(C(C)=C4[N-][C@@](C)([C@@H]5N=C1[C@](C)(CCC(=O)NC[C@@H](C)OP(=O)([O-])O[C@H]1[C@@H](O)[C@@H](n6cnc7cc(C)c(C)cc76)O[C@@H]1CO)[C@H]5CC(N)=O)[C@@](C)(CC(N)=O)[C@@H]4CCC(N)=O)[C@@](C)(CC(N)=O)[C@@H]3CCC(N)=O)C(C)(C)[C@@H]2CCC(N)=O.[C-]#N.[Co+3] the activation was inactive: -10.9%. O=[N+]([O-])c1cc([N+](=O)[O-])c(Nc2nnnn2CCO)c([N+](=O)[O-])c1 was tested, and the activation was inactive: -7.16%. In the case of CCCOc1ccc(NP(C)(=O)Oc2ccc(Cl)cc2)cc1 (configuration not stated), the activation is reported as inactive: 0.227%. In the case of CP(=O)(Nc1ccc(SC(F)(F)F)cc1)Oc1ccccc1 (configuration not stated), the activation is reported as inactive: -12.1%. COc1ccccc1OP(C)(=O)Nc1c(C)cccc1C (configuration not stated) was tested, and the activation was inactive: -4.35%. For CN1CCCCC1COC(=O)C1(O)c2ccccc2CCc2ccccc21 (configuration not stated), the activation was inactive: 0.711%. CC1=NCCc2c1[nH]c1ccccc21.O=[N+]([O-])c1cc([N+](=O)[O-])c(O)c([N+](=O)[O-])c1 was tested, and the activation was inactive: 7.64%. Cc1cc(C)cc(OP(C)(=O)Nc2ccc(C)cc2C)c1 (configuration not stated) was tested, and the activation was inactive: -2.35%. With CCOC(=O)c1ccc(NP(C)(=O)Oc2cc(C)cc(C)c2)cc1 (configuration not stated) the activation was inactive: 2.55%. For COc1ccccc1OP(C)(=O)Nc1cccc(Br)c1 (configuration not stated), the activation was inactive: -7.02%. Cc1cc(C)cc(OP(C)(=O)Nc2ccccn2)c1 (configuration not stated) was tested, and the activation was inactive: 4.39%. For CP(=O)(Nc1cccc(Br)c1)Oc1ccccc1 (configuration not stated), the activation was inactive: 8.36%. With Cc1ccc(C)c(NP(C)(=O)Oc2ccccc2)c1 (configuration not stated) the activation was inactive: -1.88%.
